According to patent US20260248888A1, “PHARMACEUTICAL COMPOSITION FOR TREATING COLORECTAL CANCER AND USE THEREOF” (JENKEM TECHNOLOGY CO., LTD. (BEIJING), priority 2022, published 2026):
Values joined by “and” are separate entries in the source; they are usually repeats but may differ in a detail not shown here. Equal values may be shown once.

Tested on: CTLL-2 cells
Test: CTLL-2 mouse T lymphocyte proliferation in vitro (MTT)
Format: cell-based
Conditions: for Absorbance difference at wavelength of 570 nm-630 nm, OD difference / Absorbance at the wavelength of 570 nm, OD value / Absorbance at the wavelength of 630 nm, OD value: 2 replicate wells; for Absorbance at the wavelength of 630 nm, OD value: reference wavelength
Procedure: 10-30 mL of CTLL-2 cell culture was taken and placed into a 50 mL sterile centrifuge tube, and centrifuged at 2000 r/min for 7 min to collect the cells. The supernatant was discarded, and the cells were washed twice with phosphate buffered saline (DPBS), which was added to about 25 mL each time, followed by centrifugation at 2000 r/min for 7 min. After one more wash with 25 mL of 1640 culture medium (centrifuged at 2000 r/min for 7 min), the cells were resuspended in a basic culture medium, and counted using a cell counting plate. The cell concentration was adjusted to about 6.0×10^5 cells/mL for later use.
50 μL/well of basic culture medium was pre-added to a 96-well cell culture plate. The standard solution and test sample solution were subsequently subjected to a 2-fold serial dilution, with 8 dilutions made for each, leaving 50 μL in each well, and 2 replicate wells were made for each gradient.
50 μL/well of the prepared cell suspension was added to the 96-well plate from low concentration to high concentration. The cell suspension was pipetted with a multichannel pipette until the cells were fully and uniformly mixed, and then added in the air.
The plate was incubated at a condition of 37±1° C. and 5±1% CO2 for 18-24 h.
20 μL/well of 5 mg/mL MTT solution was added, and the plate was incubated at a condition of 37±1° C. and 5±1% CO2 for 4-6 h.
150 μL/well of 15% SDS lysis solution was added, and the plate was incubated at a condition of 37±1° C. and 5±1% CO2 for 18-24 h.
After vibration and mixing uniformly, a color comparison was carried out on a microplate reader, with an experimental wavelength of 570 nm and a reference wavelength of 630 nm.
wherein: • C1 is the dilution factor of the test sample equivalent to the median effective dose of the standard; • C2 is the dilution factor of the median effective dose of the standard; • D1 is the pre-dilution factor of the test sample; • D2 is the pre-dilution factor of the standard;

“IL-2: IL-2 protein provided by Beijing Jenkem Technology Co., Ltd.; standard of the CTLL-2 assay” was tested, and the “Absorbance difference at wavelength of 570 nm-630 nm, OD difference” value (“Absorbance difference at wavelength” for short) (dilution factor 1) was 0.3524 and 0.3592, the “Absorbance at the wavelength of 570 nm, OD value” (shortened to “Absorbance … of 570 nm, OD value”) (dilution factor 1, standard pre-diluted to 200 IU/mL, test sample to 1300 IU/mL) was 0.6702 and 0.6885 and the “Absorbance … of 570 nm, OD value” (dilution factor 2) was 0.6592 and 0.6745. The “Absorbance difference at wavelength” value (dilution factor 2) was 0.3653 and 0.3506, the “Absorbance … of 570 nm, OD value” (dilution factor 4) was 0.6445 and 0.6734 and the “Absorbance difference at wavelength” value (dilution factor 4) was 0.3423 and 0.3562. For the same substance, the “Absorbance … of 570 nm, OD value” (dilution factor 6) was 0.5853 and 0.6337, the “Absorbance difference at wavelength” value (dilution factor 6) was 0.3100 and 0.3437 and the “Absorbance … of 570 nm, OD value” (dilution factor 16) was 0.5018 and 0.5307. For the same substance, the “Absorbance difference at wavelength” value (dilution factor 16) was 0.2605 and 0.2783, the “Absorbance … of 570 nm, OD value” (dilution factor 32) was 0.3636 and 0.3411 and the “Absorbance difference at wavelength” value (dilution factor 32) was 0.1821 and 0.1683. For the same substance, the “Absorbance … of 570 nm, OD value” (dilution factor 64) was 0.3093 and 0.3456, the “Absorbance difference at wavelength” value (dilution factor 64) was 0.1451 and 0.1468 and the “Absorbance … of 570 nm, OD value” (dilution factor 128) was 0.3023 and 0.2655. For the same substance, the “Absorbance difference at wavelength” value (dilution factor 128) was 0.1260 and 0.1212, the “dilution factor of the median effective dose (midpoint of fitted curve)” value (four-parameter fit of Table 4, standard pre-diluted to 200 IU/mL, test sample to 1300 IU/mL) was 19.3893 and the “Absorbance at the wavelength of 630 nm, OD value” (“Absorbance … of 630 nm, OD value” for short) (dilution factor 1) was 0.3178 and 0.3293. The “Absorbance … of 630 nm, OD value” (dilution factor 2) was 0.2939 and 0.3239, the “Absorbance … of 630 nm, OD value” (dilution factor 4) was 0.3022 and 0.3172 and the “Absorbance … of 630 nm, OD value” (dilution factor 6) was 0.2753 and 0.2900. For the same substance, the “Absorbance … of 630 nm, OD value” (dilution factor 16) was 0.2413 and 0.2524, the “Absorbance … of 630 nm, OD value” (dilution factor 32) was 0.1815 and 0.1728 and the “Absorbance … of 630 nm, OD value” (dilution factor 64) was 0.1642 and 0.1988. For the same substance, the “Absorbance … of 630 nm, OD value” (dilution factor 128) was 0.1763 and 0.1443.
